Test results: paper PMC5477544, “Structural and mechanistic basis of differentiated inhibitors of the acute pancreatitis target kynurenine-3-monooxygenase” (Nature Communications, 2017)
Like-named read-outs stand apart in the source and are kept apart here.

By UniProt entry, the sequences of proteins in these tests, tags left out. Where a name states a change or a piece, a line headed by the entry shows the natural chain unless it says otherwise.
UniProt O15229: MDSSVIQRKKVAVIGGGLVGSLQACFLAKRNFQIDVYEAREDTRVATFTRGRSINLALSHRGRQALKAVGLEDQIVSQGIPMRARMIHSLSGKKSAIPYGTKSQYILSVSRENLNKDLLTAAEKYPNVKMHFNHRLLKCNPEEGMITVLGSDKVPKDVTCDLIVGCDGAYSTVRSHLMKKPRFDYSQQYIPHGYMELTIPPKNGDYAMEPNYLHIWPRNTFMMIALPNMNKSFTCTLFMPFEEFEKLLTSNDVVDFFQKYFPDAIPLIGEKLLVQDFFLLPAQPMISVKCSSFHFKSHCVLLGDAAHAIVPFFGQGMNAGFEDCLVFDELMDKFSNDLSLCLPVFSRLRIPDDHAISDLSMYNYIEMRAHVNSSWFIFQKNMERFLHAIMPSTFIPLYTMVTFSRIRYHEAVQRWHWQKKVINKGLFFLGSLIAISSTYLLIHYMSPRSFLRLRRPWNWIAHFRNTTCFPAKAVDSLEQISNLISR

Target: T1, human KMO (Homo sapiens, UniProt O15229)
T1 construct: full-length human KMO was cloned as an N-terminal GST fusion; GST (N); made in house; host or cells: Sf9 insect cells, used as a membrane fraction
Assay: Rapidfire mass spectrometry IC50 assay, isolated human KMO
Type: biochemical
Experimental: For the expression and isolation of human KMO membranes, full-length human KMO was cloned as an N-terminal GST fusion, expressed in Sf9 cells and isolated as a membrane fraction as described in Lowe et al.[12]
Inhibitor IC50 values against isolated human KMO were determined using a Rapidfire mass spectrometry assay as described in Lowe et al.[12] utilizing the Sf9 cell expressed human KMO described above. The inhibitor IC50 values against Pf-KMO were determined using an analogous Rapidfire mass spectrometry assay, utilizing the purified protein described above.

IC50 (from inhibition curves of Fig. 3b, read-out: IC50 Human KMO): 2.7 nM | Effect of [L-Kyn] on IC50 (mode of inhibition) (human KMO): no dependence on [L-Kyn] | IC50 (human enzyme, mean of n determinations given in text, read-out: IC50 (mean potency, in vitro activity)): 2.5 nM
Compound: C[C@@H](Oc1cc2oc(=O)n(CCC(=O)O)c2cc1Cl)c1ccccn1 [GSK775]
